Values quoted from earlier work in patent publication US11395821B2, “Treatment of EGFR-driven cancer with fewer side effects” (G1 Therapeutics, Inc., priority 2017, dated 2022).

Details: all grades; GILOTRIF n=229, pemetrexed/cisplatin n=111; cited from earlier work

## pemetrexed/cisplatin
  diarrhea: 23%
  dry skin: 2%
  paronychia: 0%
  pruritus: 1%
  rash/acneiform dermatitis: 11%
  stomatitis: 15%
